EPAC2 antagonist: antagonists of human EPAC2; Q8WZA2; EPAC2 GEF exchange of Rap1B-BODIPY-GDP, fluorescence; Potency, µM (doses to about 114 µM), without a hit: at the highest dose activity, negative = inhibition, most hits filed as inhibitors; 0.18% of 360,000 active; further: on the % scale 0 is the no-effect control and ±100 the full control effect; nearly all actives have a fitted effect of over 45% in size
Rango-impB inh: Rango-importin beta binding inhibition | Q14974 | Rango CFP/YFP FRET sensor + importin beta, 45 min | Potency, µM (highest dose often 92.2 µM), without a hit: at the highest dose inhibition of complex formation | 0.031% of 340,000 active; calls by dose curve;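 further: 0% = DMSO wells and 100% = buffer wells lacking importin beta; nearly all actives have a fitted effect of over 15% in size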
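Inhibition scored from the CFP 486 nm/YFP 530 nm FRET ratio 45 min after adding 0.125 microM importin beta to 50 nM Rango biosensor preincubated 5 min with compound (room temperature, PBS with DTT, Tween-20, BSA). No-importin wells as positive control.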
EPAC1 antag: antagonists of human EPAC1. 0.14% of 360,000 active. AID 720709. Potency, µM (titrated, usually from 115 µM), for inactives: at the top dose activity change, negative = inhibition, most hits filed as inhibitors. EPAC1 GEF assay, Rap1b-BODIPY-GDP exchange fluorescence;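 further: plate controls were vehicle for no effect and positive control for full effect; nearly all actives have a fitted effect of over 50% in size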
EPAC2 ag: activates human EPAC2 exchange factor | EPAC2 activation, biochemical qHTS; response scale: 100% = 6.5 mM cAMP response | Potency, µM (doses to about 154 µM), inactives show at the highest dose activation, hits mostly activators | 0.079% of 360,000 active; further: nearly all actives have a fitted effect of over 50% in size
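Compounds were added across a concentration range to EPAC2 (100 nM), RAP1B-BODIPY-GDP (250 nM) and GDP (50 uM). After 5 min at room temperature, fluorescence was recorded at 5-min intervals for 30 min.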
EPAC1 agonist: EPAC1 (human) agonism; O95398; EPAC1 agonist qHTS, biochemical assay; response scale: 100% = response to 6.5 mM cAMP; 0.073% of 360,000 active; Potency, µM (doses to about 154 µM), inactives show at the top dose activation, usual class: activators; further: nearly all actives have a fitted effect of over 60% in size
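Fluorescent GDP-exchange assay: 100 nM EPAC1 with 250 nM Rap1B preloaded with BODIPY-GDP and 50 uM GDP; compounds tested as concentration series, 5 min at room temperature, then read every 5 min for 30 min (ex 480/em 540 nm); normalized to 6.5 mM cAMP.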
Rango dissoc inh: prevents RanGTP from dissociating the Rango-importin beta complex | O95149+P62826 | Biochemical FRET Rango-importin beta, RanGTP-induced dissociation | Potency, µM (titrated, usually from 46.1 µM), for the others: at the top dose activity change, negative = inhibition | 0.071% of 340,000 active; calls by dose curve; further: % of control where 0% means no effect; nearly all actives have a fitted effect of over 45% in size
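Quantitative HTS using a FRET biosensor: 0.1 uM Rango, 0.25 uM importin beta, 0.6 uM Ran, 2 mM GTP, 0.2 uM RCC1 final, PBS with DTT, Tween-20 and BSA. Post-read taken 45 min after Ran addition.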
The depositor's hits bear a star; ? = inconclusive; · = not tested or not shown. Sampled rows, rich in hits. Any-hit rate of the full collection: about 0.48%. Unless noted, the call rests on the fitted dose curve; in most records, active means well fitted curve in the direction sought with a large enough effect; inconclusive means small, poorly fitted or top-dose-only effect, or another doubt; inactive means no such curve, though single readings can be large; an effect the other way counts as inactive or inconclusive. Potency means the concentration at half of the fitted maximal effect.

SMILES | EPAC2 antagonist | Rango-impB inh | EPAC1 antag | EPAC2 ag | EPAC1 agonist | Rango dissoc inh
Oc1ccccc1C=NNC(=S)NN=Cc1ccccc1O | 4% | ? | 79µM* | 12% | 9% | ?
Oc1cccc(/C=N/NC(=S)Nc2cccnc2)c1O | 9% | ? | 11µM* | 4% | -7% | -23%
NC(=S)N/N=C/c1ccccc1O | 5% | ? | 8% | 6% | 3% | 1%
O=C1CCCN1CCCNc1nc(NCc2ccccc2)nc2ccsc12 | 6% | · | -3% | 5% | 4% | ·
O=C(O)CN1C(=O)/C(=C\c2ccccc2OCc2ccc(Cl)cc2Cl)SC1=S | ? | 0% | ? | -1% | 5% | -7%
O=C(O)CN1C(=O)/C(=C\c2cc(Br)ccc2OCc2ccccc2Cl)SC1=S | -9% | -1% | 40µM* | 10% | 5% | -10%
O=C(O)CN1C(=O)/C(=C\c2cc(Br)ccc2OCc2ccccc2F)SC1=S | 56µM* | 4% | ? | 0% | 6% | 9%
O=C(CN(C(=O)c1csnn1)c1ccc(F)c(Cl)c1)NCc1ccc(F)cc1 | 6% | -2% | -5% | 7% | -2% | -3%
COc1cccc(NC(=O)c2csc3c2CCCC3)c1 | -9% | 0% | 155% | 13% | 100µM* | -3%
COc1ccc(NC(=O)c2csc3c2CCCC3)cc1 | 6% | -2% | 9% | 7% | -1% | 0%
COc1ccc(S(=O)(=O)N2CCN(C)CC2c2ccccc2)cc1OC (stereo unspecified) | 9% | 0% | 6% | 0% | -4% | 9%
COc1ccc(OC)c(-c2csc(NC(=O)COC(=O)c3ccc(NC(=O)CC#N)cc3)n2)c1 | 0% | ? | 79µM* | 1% | 10% | -20%
COc1ccc(OC)c(-c2csc(NC(=O)COC(=O)C3CCC3)n2)c1 | -11% | 4% | -3% | 16% | 22% | -12%
CN1CCCCC1(C)C(=O)NCc1cc(Cl)ccc1F (stereo unspecified) | -2% | · | -3% | 9% | 13% | ·
Nc1ccc2c(c1)C(=O)C(=O)c1ccccc1-2 | 8.9µM* | -1% | ? | -12% | -9% | -10%
CSc1ncccc1C(=O)Nc1ccc(S(=O)(=O)NC2=NCCCCC2)cc1 | 4% | -2% | -2% | 1% | 4% | -9%
CN1CCN(c2cc(N3CCN(C(=O)c4ccco4)CC3)c3c4c(onc24)-c2ccccc2C3=O)CC1 | -13% | 1% | ? | 7% | 8% | 10%
O=C1c2ccccc2-c2onc3c(N4CCN(CCO)CC4)cc(N4CCN(C(=O)c5ccco5)CC4)c1c23 | -1% | 37µM* | -25% | 4% | -17% | 13%
c1ccc(NN(Cc2ccccn2)c2ccccc2)cc1 | 14µM* | · | -14% | 18% | -1% | ·
c1ccc(NN(Cc2cnccn2)c2ccccc2)cc1 | ? | · | -3% | -6% | 2% | ·
CC1=C/C(=C(\c2cc(C)c(O)c(Br)c2)c2ccccc2S(=O)(=O)O)C=C(Br)C1=O | 40µM* | ? | ? | -14% | -15% | 1%
O=C(c1cccc(-n2cccc2)c1)N1CCN(S(=O)(=O)c2ccccc2)CC1 | -5% | ? | 79µM* | 7% | 12% | 3%
Cc1ccc(S(=O)(=O)N2CCN(C(=O)c3cccc(-n4cccc4)c3)CC2)cc1 | 14% | 3% | -25% | 10% | -5% | -21%
Cc1ccc(/C=C/C(=O)c2ccccc(=O)c2O)cc1C | -19% | ? | ? | 15% | 21% | 8.2µM*
CCOC(=O)C1CCCN(C(=O)c2ccc3[nH]c4c(c3c2)CC(C)CC4)C1 (stereo unspecified) | -16% | ? | -21% | -4% | -3% | -29%
CC1CCc2[nH]c3ccc(C(=O)N4CCCC(C(F)(F)F)C4)cc3c2C1 (stereo unspecified) | -29% | 2% | ? | -14% | 112µM* | 2%
O=C(N/N=C/c1ccc(-c2ccc(S(=O)(=O)Nc3ncccn3)cc2)o1)c1cc2ccccc2cc1O | -12% | ? | 13µM* | 1% | -1% | -21%
CC1(C(=O)NS(=O)(=O)c2cccc(F)c2)CCN1C(=O)CC1CCCCC1 (stereo unspecified) | -14% | · | -6% | 14% | 6% | ·
CN(CCc1ccccn1)C(=O)Nc1ccc(F)cc1 | 5% | -6% | 4% | 6.3µM* | 1% | -3%
CN1C(=O)C(C)(C)c2cc(S(=O)(=O)N3CCN(c4ccc(F)cc4)CC3)ccc21 | -8% | 0% | -5% | 11% | 6% | ?

3 structures out of the list, sorted by length of the SMILES, smallest number first:
SMILES | EPAC2 antagonist | Rango-impB inh | EPAC1 antag | EPAC2 ag | EPAC1 agonist | Rango dissoc inh
NC(=S)N/N=C/c1ccccc1O | 5% | ? | 8% | 6% | 3% | 1%
COc1ccc(S(=O)(=O)N2CCN(C)CC2c2ccccc2)cc1OC (stereo unspecified) | 9% | 0% | 6% | 0% | -4% | 9%
CSc1ncccc1C(=O)Nc1ccc(S(=O)(=O)NC2=NCCCCC2)cc1 | 4% | -2% | -2% | 1% | 4% | -9%

(next part)
SMILES | EPAC2 antagonist | Rango-impB inh | EPAC1 antag | EPAC2 ag | EPAC1 agonist | Rango dissoc inh
CCOC(=O)C1=C(N)OC2=C(C(=O)CC(C)(C)C2)C1c1cc(CSc2nnnn2C)cs1 (stereo unspecified) | -2% | -3% | 3% | 6% | 7% | -11%
CCOC(=O)c1cc2c(ccn2C)n1CC(=O)N1CCN(c2cccc(C(F)(F)F)c2)CC1 | ? | 0% | 56µM* | -14% | -29% | ?
C#CCOCCOCCOCCNc1nc(N2CCN(C(=O)CCCCCCCCCCNC(=O)Cn3cc(C[C@@H](C)O)nn3)CC2)nc(N2CCN(C(=O)CCCCCCCCCCNC(=O)[C@@H]([C@H](C)CC)n3cc(CCCCCN)nn3)CC2)n1 | -28% | 15% | 50µM* | 16% | 19% | 1%
C#CCOCCOCCOCCNc1nc(N2CCN(C(=O)CCCCCCCCCCNC(=O)Cn3cc(CCCCCN)nn3)CC2)nc(N2CCN(C(=O)CCCCCCCCCCNC(=O)Cn3cc(C[C@@H](C)O)nn3)CC2)n1 | ? | 1% | 35µM* | ? | 23% | -7%
OC(COC1CCCCC1)CN1CCCCC1 (stereo unspecified) | 2% | 2% | -5% | 1% | 4% | 7%
COc1ccccc1NC(=O)CN1CCSc2ccccc21 | -12% | -1% | -15% | 10% | -1% | -2%
O=c1cc(-c2ccccc2)nc2c(-c3ccccc3)c(C(F)(F)F)[nH]n12 | 18µM* | 0% | ? | -5% | -5% | -12%
Cc1cc(=O)n2[nH]c(C)c(-c3ccccc3)c2n1 | 6% | 0% | 3% | 2% | -2% | 0%
CC(C)(C)NC(=O)C(C1CC1)n1c(=O)c(-c2ccco2)nc2ccccc21 (stereo unspecified) | 0% | · | 2% | -3% | 1% | ·
CC1(C(=O)NS(=O)(=O)c2ccc(F)cc2F)CCN1C(=O)C1(c2ccc(Cl)cc2)CCC1 (stereo unspecified) | 35µM* | · | ? | -1% | -17% | ·

Part of the list above, reduced to EPAC2 antagonist:
SMILES | EPAC2 antagonist
O=C(O)CN1C(=O)/C(=C\c2ccccc2OCc2ccc(Cl)cc2Cl)SC1=S | ?
O=C(O)CN1C(=O)/C(=C\c2cc(Br)ccc2OCc2ccccc2Cl)SC1=S | -9%
O=C(O)CN1C(=O)/C(=C\c2cc(Br)ccc2OCc2ccccc2F)SC1=S | 56µM*
O=C(CN(C(=O)c1csnn1)c1ccc(F)c(Cl)c1)NCc1ccc(F)cc1 | 6%
COc1cccc(NC(=O)c2csc3c2CCCC3)c1 | -9%
